The values that follow come from patent US20090076009A1, “THIAZOLE DERIVATIVES AND THEIR USE AS ANTI-TUMOUR AGENTS” (priority 2006, published 2009).

Sequences of proteins named here, by UniProt entry; tags and fusion partners are left off. Residues count along the entry.
UniProt P42336, whole entry: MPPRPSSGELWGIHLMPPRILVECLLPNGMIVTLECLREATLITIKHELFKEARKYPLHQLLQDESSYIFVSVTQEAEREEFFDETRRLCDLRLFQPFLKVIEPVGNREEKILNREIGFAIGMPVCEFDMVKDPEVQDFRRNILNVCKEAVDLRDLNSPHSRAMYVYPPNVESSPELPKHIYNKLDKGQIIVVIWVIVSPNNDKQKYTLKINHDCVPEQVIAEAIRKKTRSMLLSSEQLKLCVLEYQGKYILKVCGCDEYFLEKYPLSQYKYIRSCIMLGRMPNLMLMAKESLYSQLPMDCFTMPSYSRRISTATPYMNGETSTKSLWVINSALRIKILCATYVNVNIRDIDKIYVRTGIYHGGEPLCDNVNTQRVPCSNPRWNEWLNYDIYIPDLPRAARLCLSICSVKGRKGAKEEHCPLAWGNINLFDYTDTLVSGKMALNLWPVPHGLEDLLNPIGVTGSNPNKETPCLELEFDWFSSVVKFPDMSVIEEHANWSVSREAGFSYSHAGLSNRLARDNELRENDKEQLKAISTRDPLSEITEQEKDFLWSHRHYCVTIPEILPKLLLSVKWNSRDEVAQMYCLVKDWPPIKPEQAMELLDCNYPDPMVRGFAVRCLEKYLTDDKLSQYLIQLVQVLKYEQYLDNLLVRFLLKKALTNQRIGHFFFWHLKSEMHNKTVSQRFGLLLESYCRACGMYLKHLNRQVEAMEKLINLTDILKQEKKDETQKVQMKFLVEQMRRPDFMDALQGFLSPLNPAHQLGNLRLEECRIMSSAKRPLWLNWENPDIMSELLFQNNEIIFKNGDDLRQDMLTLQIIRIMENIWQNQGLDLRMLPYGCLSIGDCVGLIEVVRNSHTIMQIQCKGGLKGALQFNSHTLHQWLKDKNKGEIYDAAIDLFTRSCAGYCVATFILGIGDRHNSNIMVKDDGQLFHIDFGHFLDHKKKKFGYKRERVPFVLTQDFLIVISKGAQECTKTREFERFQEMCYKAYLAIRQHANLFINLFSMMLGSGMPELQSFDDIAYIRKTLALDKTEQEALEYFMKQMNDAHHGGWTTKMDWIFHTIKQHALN
UniProt P42345, 1362-2549 limits assumed: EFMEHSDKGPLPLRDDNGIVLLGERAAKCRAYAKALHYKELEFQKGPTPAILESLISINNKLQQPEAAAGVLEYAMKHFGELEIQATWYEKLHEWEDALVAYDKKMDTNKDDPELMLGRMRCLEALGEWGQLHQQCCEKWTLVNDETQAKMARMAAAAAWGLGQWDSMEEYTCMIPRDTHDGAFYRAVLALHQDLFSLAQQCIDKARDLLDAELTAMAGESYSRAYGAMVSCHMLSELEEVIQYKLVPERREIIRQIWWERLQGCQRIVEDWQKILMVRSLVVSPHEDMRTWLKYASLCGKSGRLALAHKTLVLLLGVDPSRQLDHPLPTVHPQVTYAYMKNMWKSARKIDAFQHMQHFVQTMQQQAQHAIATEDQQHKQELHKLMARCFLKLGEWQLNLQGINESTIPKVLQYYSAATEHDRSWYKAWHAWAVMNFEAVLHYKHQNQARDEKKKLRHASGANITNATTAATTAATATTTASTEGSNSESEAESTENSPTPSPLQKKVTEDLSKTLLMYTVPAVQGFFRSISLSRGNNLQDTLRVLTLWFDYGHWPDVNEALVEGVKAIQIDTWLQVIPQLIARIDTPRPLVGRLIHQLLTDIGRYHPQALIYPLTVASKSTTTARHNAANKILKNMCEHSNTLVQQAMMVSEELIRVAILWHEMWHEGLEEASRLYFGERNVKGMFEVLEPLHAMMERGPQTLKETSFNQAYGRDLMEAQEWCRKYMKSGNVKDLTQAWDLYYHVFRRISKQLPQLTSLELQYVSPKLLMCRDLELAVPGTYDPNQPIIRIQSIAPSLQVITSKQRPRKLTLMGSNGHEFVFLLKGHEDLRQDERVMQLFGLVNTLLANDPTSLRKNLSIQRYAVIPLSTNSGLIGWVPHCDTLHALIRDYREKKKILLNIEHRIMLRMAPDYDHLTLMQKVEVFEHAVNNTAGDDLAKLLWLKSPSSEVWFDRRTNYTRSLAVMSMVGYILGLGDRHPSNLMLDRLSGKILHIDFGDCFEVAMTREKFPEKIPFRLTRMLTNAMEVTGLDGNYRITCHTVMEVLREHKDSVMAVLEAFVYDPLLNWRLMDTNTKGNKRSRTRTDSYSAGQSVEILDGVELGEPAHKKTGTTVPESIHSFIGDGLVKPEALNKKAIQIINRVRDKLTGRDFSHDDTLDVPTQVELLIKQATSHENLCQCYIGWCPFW
UniProt P27986, whole entry partner: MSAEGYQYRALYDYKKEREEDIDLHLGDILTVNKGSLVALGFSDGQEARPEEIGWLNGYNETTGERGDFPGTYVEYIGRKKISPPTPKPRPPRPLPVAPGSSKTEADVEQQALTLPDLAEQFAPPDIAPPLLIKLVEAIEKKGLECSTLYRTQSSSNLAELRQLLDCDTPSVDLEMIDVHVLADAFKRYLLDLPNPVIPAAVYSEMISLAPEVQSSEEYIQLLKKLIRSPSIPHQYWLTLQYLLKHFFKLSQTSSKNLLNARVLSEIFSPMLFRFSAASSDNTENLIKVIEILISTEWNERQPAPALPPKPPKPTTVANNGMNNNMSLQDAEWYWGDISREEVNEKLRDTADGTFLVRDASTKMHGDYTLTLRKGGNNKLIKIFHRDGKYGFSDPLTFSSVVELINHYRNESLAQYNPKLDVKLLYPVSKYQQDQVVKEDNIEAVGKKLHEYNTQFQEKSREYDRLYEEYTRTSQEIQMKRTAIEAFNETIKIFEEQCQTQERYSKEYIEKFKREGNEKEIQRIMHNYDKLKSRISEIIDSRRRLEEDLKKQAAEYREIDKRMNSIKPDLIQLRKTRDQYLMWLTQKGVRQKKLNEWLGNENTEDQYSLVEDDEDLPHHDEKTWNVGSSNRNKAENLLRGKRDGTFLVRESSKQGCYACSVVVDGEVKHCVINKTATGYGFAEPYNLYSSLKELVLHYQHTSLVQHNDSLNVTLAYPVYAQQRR

Each structure is given as a SMILES string.

One assay concerns the target p110α Type Ia human PI3K (Homo sapiens, UniProt P42336). Nature of the assay: In Vitro PI3K Enzyme Assay (AlphaScreen). The note with it: read-out: IC50 versus p110α Type Ia human PI3K; Test (a). In kind it is biochemical.
The target in assay [1] is mTOR PI kinase-related kinase (Homo sapiens, UniProt P42345). The experiment in a line: In Vitro mTOR PI kinase-related Kinase Assay (AlphaScreen). In kind it is biochemical. The note with it: read-out: IC50 versus mTOR PI kinase-related kinase; Test (b). In general terms: In Alpha technology, singlet oxygen from a donor bead excites a nearby acceptor bead.
In assay [2] the test system is phosphorylation of Serine 473 in Akt in MDA-MB-468 human breast adenocarcinoma cell line. The experiment in a line: In Vitro Phospho-Ser473 Akt Assay. It is filed as cell-based. The note with it: read-out: IC50, inhibition of phosphorylation of Serine 473 in Akt; Test (c), MDA-MB-468 cells.

As usually defined, the IC50 is the concentration at which inhibition is half-maximal. `CC(=O)Nc1ncc(-c2cnc(Cl)c(NS(C)(=O)=O)c2)s1`: the figures for the 50% inhibitory concentration (IC50) (on p110α Type Ia human PI3K; in assay [1]; in assay [2]) were 0.01 µM, 0.01 µM and 1 µM, respectively.
